Assay results as given in patent US20010036626A1, “Screening assay methods and systems using target pooling” (priority 2000, published 2001).

System: CHO cell line expressing the M1 muscarinic receptor
Assay: Pooled two-target microfluidic screen: Fluo-4 green fluorescence response of CHO-M1 cells
Type: cell-based
Conditions: pooled with THP-1 cells, microfluidic channel, blue excitation light, FIG. 6
Method: A THP-1 cell line was labeled with Fura red. Both cell lines were pooled and introduced into microfluidic device having the channel structure illustrated in FIG. 5. The cells were flowed through the main channel of the device past a detector that excited the cells with blue excitation light. Green fluorescence was analyzed from the Fluo-4 labeled CHO cells to measure their response to the test compounds. The measurement of the different fluorescence was accomplished simultaneously through the use of appropriate beam splitters and filters in the optical train of the detector. Similarly, red fluorescence was measured from the Fura-red labeled THP-1 cells to measure their response. […] Similarly, different concentrations of UTP were also contacted with the cells flowing through the channel and the results for each system were plotted (FIG. 6C-D).

SMILES: C[N+](C)(C)CCOC(N)=O [carbachol]
- green fluorescence response of Fluo-4 labeled CHO-M1 cells to different concentrations of test compound: dose dependent change
